Results reported in patent US20130071374, “RNA Interferases and Methods of Use Thereof” (published 2013).

Target: T1, (His)6MazE
T1 chain: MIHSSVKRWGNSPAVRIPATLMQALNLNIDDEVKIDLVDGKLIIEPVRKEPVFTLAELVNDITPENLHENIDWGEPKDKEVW

B1: MazF(His)6 (protein)
chain: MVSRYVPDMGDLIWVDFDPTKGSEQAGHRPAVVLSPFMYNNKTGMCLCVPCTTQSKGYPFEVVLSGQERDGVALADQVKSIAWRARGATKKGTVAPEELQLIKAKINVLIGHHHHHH
  cleavage of the mazG mRNA (toeprinting / primer extension): The cleavage of the mazG mRNA was again blocked when MazE was co-added
